Measurements reported in patent US20260176262A1, “KRAS INHIBITORS, PREPARATION METHOD THEREFOR, AND PHARMACEUTICAL USE THEREOF” (ABBISKO THERAPEUTICS CO., LTD., priority 2021, published 2026).

Protein sequences, listed by entry. Tags and fused reporters are not part of them. Residues count along the entry.
UniProt P01116, 1-188 isoform 2 G12D: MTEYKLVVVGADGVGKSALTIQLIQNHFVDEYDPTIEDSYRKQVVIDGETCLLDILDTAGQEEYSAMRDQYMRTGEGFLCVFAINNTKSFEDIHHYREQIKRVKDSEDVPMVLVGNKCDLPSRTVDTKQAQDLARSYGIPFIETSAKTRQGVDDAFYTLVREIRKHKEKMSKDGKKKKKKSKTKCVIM

Key:
AGS cell = test: Anti-proliferative 2D CTG assay, AGS cells; details: read-out: AGS cell IC50, incubated 3 days, class symbols
Experimental: When the cell confluence was about 80%, the cells were isolated with 0.25% trypsin. Isolated cells were resuspended in 5 mL fresh cell culture medium and centrifuged for cell collection. Meanwhile, the number of cells was also calculated. The cells were then suspended in culture medium of medium concentration. The cells were placed into a 96-well plate with 1000 cells/well for AGS and 1000 cells/well for GP2D. The 96-well plate was placed in an incubator at 37° C. and incubated overnight.
1.2 Day 1 Compound Treatment From the 10 mM stock solution, with a ratio of 1:5, 10-point serial dilutions were performed. The 10× medium containing the compound was transferred into corresponding wells of the 96 wells. The final maximum compound concentration was […] and the final DMSO concentration was 0.1%. The 96-well plate was placed in a 37° C. incubator, the AGS cells were incubated for 3 days, and the GP2D cells were incubated for 4 days.
50 μL/well of detection reagent (CTG) was added to the AGS cells, and the signal was read in an Envision machine.
The percent inhibition (%) at each compound concentration was calculated from the signal in the HPE and ZPE control wells and the fluorescence signal in the individual compound wells included in each assay plate. […] The endpoint value (IC50) of the reference compound was assessed in each experiment as a quality control measure. […]

KRAS^G12D/cRAF = KRAS^G12D/cRAF (Homo sapiens, UniProt P01116, G12D); test: KRAS G12D/cRAF binding test (Alphalisa); details: read-out: KRAS G12D/CRAF Alphalisa IC50; His-tagged KRAS G12D + GMPPNP, GST-tagged cRAF; class symbols
Experimental: The compound was dissolved in 100% DMSO at a starting concentration of 5 mM and diluted in DMSO with a 3-fold serial dilution method for a total of 8 concentration points. 1 μL of the compound or DMSO at each concentration point was added into 99 μL of the experimental buffer to obtain 10× stock solution.
• 1) 4 μL of the working mixture solution of His-tagged KRAS^G12D and GMPPNP was added to the 384-well plate. • 2) The 10× compound stock solution or 1% DMSO was added to the 384-well plate. • 3) The plate was centrifuged at 1000 rpm for 1 minute. • 4) 4 μL of GST-tagged cRAF solution was added to the 384-well plate. • 5) The plate was centrifuged at 1000 rpm for 1 minute. • 6) The plate was incubated at room temperature for 15 minutes. • 7) 10 μL of detection working solution was added to the 384-well plate. • 8) The plate was centrifuged at 1000 rpm for 1 minute. • 9) The plate was incubated at room temperature for 60 minutes. • 10) The 384-well plate was placed into Envision and assay data was obtained.
The ratio for each compound concentration was calculated from the signal of the DMSO control group contained in each assay plate and the Alphalisa signal in each compound well. […] The endpoint value (IC50) of the reference compound was assessed in each experiment as a quality control measure. […]

[2H]C([2H])([2H])OC[C@]12CC[C@H](CN(c3nc(OC[C@@]45CCCN4C[C@H](F)C5)nc4c(F)c(-c5cc(O)cc6ccc(F)c(C#C)c56)ncc34)C1)N2
IC50 (AGS cell): 50 to 500 nM | IC50 (KRAS^G12D/cRAF): > 500 nM

[2H]C([2H])([2H])OC[C@@]12CC[C@@H](CN(c3nc(OC[C@@]45CCCN4C[C@H](F)C5)nc4c(F)c(-c5cc(O)cc6ccc(F)c(C#C)c56)ncc34)C1)N2
IC50 (AGS cell): < 50 nM | IC50 (KRAS^G12D/cRAF): < 50 nM
